The values that follow are results of earlier work, collected in US12226503B2, “Prebiotic skin care compositions containing carboxylic acids” (priority 2019, dated 2025).

For this data set the following is noted: toxic or irritant for humans or on skin.

In the case of `O=C(O)CCC(=O)C(=O)O` [α-Keto-glutaric acid], the Toxicity result was “+”.
